Results on 1 substance are retold here after paper PMC4650837.

The assay addresses N171-40Q mutant huntingtin protein (UniProt P42858). Put plainly: trapping of a disulfide-linked heterodimer, non-reducing SDS-PAGE and Western blot; cell-free; purified proteins in 50 mM Tris (pH 7.0), 150 mM NaCl incubated at room temperature for one hour, then 50 mM N-ethylmaleimide to block free thiols; reducing or non-reducing SDS-PAGE.

What is called stoichiometry N is a count of units in the complex or per binding partner. In turn, “N171-40Q mutant huntingtin protein (from UniProt P42858 1-171) (domain or fragment)” returned a stoichiometry N of 2.
